Measurements reported in US5380668A, “Compounds having the antigenicity of hCG” (University of Utah Research Foundation, priority 1993, dated 1995).

Tested on: anti-hCG monoclonal antibody directed against a portion of the β-subunit of hCG
Assay: EIA binding of BSA-conjugated peptide with anti-hCG monoclonal antibody
Conditions: peptide conjugated to BSA, absorbed on 96-well plate; antibody overnight at 4° C; alkaline phosphatase labeled protein A
Experimental: The binding of the synthesized peptide with an anti-hCG monoclonal antibody purified as per van Erp et al. J. Immunol. Methods, 140: 35-241 (1991) and directed against a portion of the β-subunit of hCG (provided by Organon-Teknika of Boxtel, NL) was determined by EIA. The peptide was conjugated through its thiol group to BSA using a heterobifunctional cross-linking reagent (succinimidyl 4-(N-maleimidomethyl)cyclohexane-1-carboxylate). The conjugates were first absorbed on the wells of a ninety-six well plate. Nonspecific binding sites on the surface was masked by unlabeled BSA. The anti-hCG antibody was allowed to react with both sample and control wells overnight at 4° C. Alkaline phosphatase labeled protein A was used for the color development.

Substance: hCG: glycoprotein secreted by the placenta and excreted in the urine; positive control in the EIA
- binding with anti-hCG antibody (EIA response): comparable responses to the peptide antigen
